Only a part is listed here, and it is no random draw. Some tests of the compounds listed are not included; inactive here does not mean inactive elsewhere. Activity calls are given as the source filed them. Cut-off read from the data, not from the text of the source: active = inhibition above about 50%; inconclusive = no clear call, values can overlap the other calls; inactive = below that.

The chains behind the UniProt entries cited, without tags or fusion partners.
UniProt P35236, whole entry: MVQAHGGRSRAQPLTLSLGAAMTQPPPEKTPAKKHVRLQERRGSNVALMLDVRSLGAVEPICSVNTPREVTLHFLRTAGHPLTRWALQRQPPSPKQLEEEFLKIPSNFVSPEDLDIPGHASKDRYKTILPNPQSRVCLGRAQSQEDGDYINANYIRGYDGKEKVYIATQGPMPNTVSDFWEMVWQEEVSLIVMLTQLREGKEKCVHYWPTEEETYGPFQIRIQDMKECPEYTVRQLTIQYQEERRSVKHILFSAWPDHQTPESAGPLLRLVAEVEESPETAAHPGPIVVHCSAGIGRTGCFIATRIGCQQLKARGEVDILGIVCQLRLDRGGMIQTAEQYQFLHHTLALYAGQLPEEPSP

This experiment concerns the target Tyrosine-protein phosphatase non-receptor type 7 (Homo sapiens) (UniProt P35236). In words: HePTP tyrosine phosphatase activity blockers – biochemical, absorbance, leukemia target, primary screen (AID 521).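 Note: plate controls were vehicle for no effect and reference inhibitor for full effect.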 Conditions: recombinant HePTP phosphatase activity, OD absorbance; at 20 µM; hits give high values.
For `O=C(OC1CN2CCC1CC2)C(CO)(c1ccccc1)c1ccccc1` (stereo not drawn), the inhibition is inactive: 7.4%.
Consider `CN(C)c1cccc(C(=O)NCC2(N(C)C)CCCCC2)c1`, for which the inhibition was inactive: 6.1%.
Under `COc1ccc(OC)c(C=C(C#N)C#N)c1` stands inactive: 3.2%.

The values above are taken from PubChem BioAssay AID521 (Sanford-Burnham Center for Chemical Genomics, 2006).
